# Test: Plasma concentrations of tamoxifen and its metabolites in breast cancer patients on tamoxifen, by HPLC-tandem mass spectrometry
substance,measurement,setting,value
4-hydroxy-tamoxifen [4-OH-tamoxifen],mean plasma concentration (±SD),"all samples analyzed, n = 125, before daily 20 mg TAM dose",9.01 ± 7.13 ng/mL
same,"plasma concentration, mean ±SD","genotype SULT1A1 *2/*2, n = 15",9.20 ± 6.80 ng/mL
same,"plasma concentration, median","genotype SULT1A1 *2/*2, n = 15",8.20 ng/mL
same,"plasma concentration, range","genotype SULT1A1 *2/*2, n = 15",(1.47–29.54) ng/mL
same,"plasma concentration, mean ±SD","genotype SULT1A1 wt/*2, n = 46",9.85 ± 7.17 ng/mL
same,"plasma concentration, median","genotype SULT1A1 wt/*2, n = 46",7.98 ng/mL
same,"plasma concentration, mean ±SD","genotype SULT1A1 wt/wt, n = 60",8.44 ± 7.30 ng/mL
same,"plasma concentration, median","genotype SULT1A1 wt/wt, n = 60",6.40 ng/mL
same,"plasma concentration, mean ±SD","genotype SULT1A2 *2/*2, n = 16",9.00 ± 6.94 ng/mL
same,"plasma concentration, median","genotype SULT1A2 *2/*2, n = 16",7.52 ng/mL
same,"plasma concentration, range","genotype SULT1A2 *2/*2, n = 16",(2.42–29.54) ng/mL
same,"plasma concentration, median","genotype SULT1A2 *2/*3, n = 13",11.20 ng/mL
same,"plasma concentration, range","genotype SULT1A2 *2/*3, n = 13",(3.25–28.84) ng/mL
same,"plasma concentration, mean ±SD","genotype SULT1A2 *3/*3, n = 5",7.85 ± 5.18 ng/mL
same,"plasma concentration, range","genotype SULT1A2 *3/*3, n = 5",(3.25–16.45) ng/mL
same,"plasma concentration, mean ±SD","genotype SULT1A2 wt/*2, n = 33",11.38 ± 9.34 ng/mL
same,"plasma concentration, median","genotype SULT1A2 wt/*2, n = 33",7.62 ng/mL
same,"plasma concentration, range","genotype SULT1A2 wt/*2, n = 33",(2.12–35.90) ng/mL
same,"plasma concentration, mean ±SD","genotype SULT1A2 wt/*3, n = 16",8.66 ± 7.13 ng/mL
same,"plasma concentration, median","genotype SULT1A2 wt/*3, n = 16",7.20 ng/mL
same,"plasma concentration, range","genotype SULT1A2 wt/*3, n = 16",(1.06–26.98) ng/mL
same,"plasma concentration, mean ±SD","genotype SULT1A2 wt/wt, n = 38",6.02 ± 3.28 ng/mL
same,"plasma concentration, median","genotype SULT1A2 wt/wt, n = 38",5.70 ng/mL
same,"plasma concentration, range","genotype SULT1A2 wt/wt, n = 38",(1.47–14.95) ng/mL
same,"plasma concentration, mean ±SD","genotype SULT1E1 *2/*2, n = 5",5.91 ± 1.98 ng/mL
same,"plasma concentration, median","genotype SULT1E1 *2/*2, n = 5",5.70 ng/mL
same,"plasma concentration, range","genotype SULT1E1 *2/*2, n = 5",(3.20–8.71) ng/mL
same,"plasma concentration, mean ±SD","genotype SULT1E1 wt/*2, n = 28",8.67 ± 6.39 ng/mL
same,"plasma concentration, median","genotype SULT1E1 wt/*2, n = 28",6.20 ng/mL
same,"plasma concentration, range","genotype SULT1E1 wt/*2, n = 28",(2.87–29.54) ng/mL
same,"plasma concentration, mean ±SD","genotype SULT1E1 wt/wt, n = 88",9.40 ± 7.55 ng/mL
